# PubChem BioAssay AID431 (Sanford-Burnham Center for Chemical Genomics, 2006)
# This is a selection; strong and weak results do not stand in their true shares. Entries with a potency or affinity are not part of this list. Calls of active or inactive are those of the source.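 The calls were made as follows: active = compounds whose percent cytotoxicity in the single-dose primary screen, scaled between solvent and toxic-drug controls, exceeds 50; inactive = the rest.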
# Assay: cytotoxicity in KRAS-transformed pancreatic duct cells, primary screen, cell-based, fluorescence, HTS (AID 431);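 also: 0% = DMSO solvent wells and 100% = doxorubicin-treated wells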
# Details: HPDE-C7K KRASV12 cells, Alamar Blue viability, 48 h; at 10 µM; active compounds read high
row,Compound,cytotoxicity
1,Cc1c2non([O-])c-2c(C)[n+](=O)[n+]1[O-],inactive: -9.4%
2,O=C(OC1CN2CCC1CC2)c1cccc(Cl)c1 (stereo not drawn),inactive: -7.3%
3,c1nnnn1CCn1cnnn1,inactive: -34.3%
4,O=P(Nc1nccs1)(c1ccccc1)c1ccccc1,inactive: 9.7%
5,O=P1(Nc2nc3ccc(Cl)cc3s2)COc2ccccc2O1 (stereo not drawn),inactive: -22.5%
6,COC(=O)c1cc2c(s1)N=C(c1ccccc1)N(C)P2(=O)N1CCOCC1 (stereo not drawn),inactive: 0.2%
7,CCOP1(=S)c2c(C)nn(CCC#N)c2N=C(c2ccccc2F)N1C (stereo not drawn),inactive: -5.7%
8,O=P(Nc1nccs1)(c1ccccc1)c1nc2ccccc2s1 (stereo not drawn),inactive: -9.7%
9,CCOP1(=S)c2c(C)nn(CCC#N)c2N=C(c2ccc(F)cc2)N1C (stereo not drawn),inactive: -6.4%
10,Cc1cccc(OCC(=O)OC2CN3CCC2CC3)c1 (stereo not drawn),inactive: 3.5%
11,Clc1n[nH]nc1-c1nn[nH][15n]1,inactive: -0.2%
12,O=P1(Nc2ccccn2)COc2ccccc2OC1,inactive: -3.9%
13,Cc1nn(-c2ccccc2)c2c1P(=O)(N1CCOCC1)N(C)C(c1ccccc1)=N2 (stereo not drawn),inactive: -0.5%
14,O=P1(Nc2ccc(Br)cn2)COc2ccccc2OC1,inactive: -25.3%
15,Cc1ccc(OCC(=O)OC2CN3CCC2CC3)cc1 (stereo not drawn),inactive: -18.4%
16,O=P1(Nc2ncccn2)COc2ccccc2OC1,inactive: -6.1%
17,O=C(COc1ccccc1)OC1CN2CCC1CC2 (stereo not drawn),inactive: -5.9%
18,COP1(=S)c2c(C)nn(CCC#N)c2N=C(c2ccc(F)cc2)N1C (stereo not drawn),inactive: -2.2%
